The values below are quoted from earlier work in article PMC12323307, “Oral delivery of GLP-1 peptide using recombinant Lactobacillus gasseri for the treatment of type 2 diabetes mellitus” (Microbiology Spectrum, 2025).

On this data set, the source says:
In prior research, Cheng et al. developed an innovative approach to engineer a precursor peptide for liraglutide, specifically a mutant form of GLP-1 (GLP-1 (7–37)^R34) ([8]). Human serum albumin (HSA), an endogenous molecular transporter, is widely recognized for its favorable properties, including excellent biodegradability, non-toxicity, and non-immunogenicity. With a half-life of approximately 19 days, HSA is frequently utilized as ...

With “HSA: endogenous molecular transporter used as drug carrier”, the half-life entry is listed as “approximately 19 days”.
